Measurements: paper PMC7924963 (Journal of the American Chemical Society, 2020)

Assays:
native MS = molecular target: the molecule itself; test: native MS
cross-linking = molecular target: the molecule itself; test: cross-linking

B1: C99, the 99-residue C-terminal domain of the human amyloid precursor protein (APP) (domain or fragment)
chain: not shown
stoichiometry N (native MS): 3 | stoichiometry N (cross-linking): 2
